Data reported in PMC12462173, “Evaluation of in vitro drug-drug interactions of ivermectin and antimalarial compounds” (Malaria Journal, 2025).

Test system: pooled human liver microsomes
Procedure: Pooled human liver microsomes (containing 20 mg/mL protein) were thawed on ice, and the reactions were conducted in a 96-well plate (1 mL, Agilent Technologies, Santa Clara, CA, USA). The assay buffer consisted of 0.1 M potassium phosphate buffer (pH 7.4). The premix solutions for each condition were prepared with specific volumes of each component, as outlined in Table S1. The premix solution was prepared by combining ivermectin, antimalarial drug, microsomes, and buffer. Three replicates of each premix solution were prepared, and 475 µL of each premix was transferred into separate wells of the 96-well plate. The plate was incubated at 37 °C for 5 min with gentle shaking (300 rpm). Following incubation, 25 µL of 20 mM NADPH was added to each well, and the solution was mixed thoroughly. The final incubation mixture (500 µL) contained a total microsome concentration of 0.53 mg/mL. To monitor the metabolism of ivermectin, 50 µL from each well was collected at 0, 15, 30, 45, 60, 90, 120, and 150 min and transferred to a new plate containing 200 µL of cold acetonitrile and 100 ng/mL of ivermectin-D2 (internal standard). The collection plate was kept on ice during sampling. After sample collection, the plate was sealed and centrifuged at 1,100 × g for 15 min at 4 °C. A 100 µL aliquot of the clear supernatant was transferred to a new plate for immediate LC–MS analysis.
The LC system consisted of an Agilent 1260 quaternary pump, an Agilent 1260 autosampler (set at 6 °C), and an Agilent 1290 column compartment (set at 40 °C). Five µL of sample was analysed on an Acquity UPLC HSS T3 reversed-phase column (2.1 × 100 mm, 1.8 μm) with a precolumn (2.1 × 5 mm, 1.8 μm) under a linear gradient. The mobile phase consisted of water with 10 mM ammonium acetate and 0.1% formic acid (A) and acetonitrile:water (95:5, v/v) with 10 mM ammonium acetate and 0.1% formic acid (B), at a flow rate of 0.3 mL/min. […] Data were acquired from m/z 100–1,000 in TOF–MS scan mode using Analyst TF Software 1.8, and ivermectin quantification (ivermectin peak area/internal standard peak area) was performed with MultiQuant Software (Sciex, Framingham, MA, USA) with a high resolution TOF–MS scan mode.
The metabolism rate of ivermectin was evaluated based on the normalized peak area (%) of ivermectin over a total of 150 min of incubation. […] This normalized value was further adjusted relative to the pre-incubation ivermectin peak area (zero-minute sample) within a sample collection series, resulting in final ivermectin concentrations expressed as relative peak areas. […] Furthermore, the relative difference (%) in in vitro metabolism rate (i.e. difference between regression slopes) for ivermectin alone and when co-incubated with an antimalarial was calculated as shown in Eq. 1.

## COc1cc(NC(C)CCCN)c2ncccc2c1 (stereo not shown) [Primaquine]
  DDI effect on the in vitro metabolism rate of ivermectin (class in words): little impact
human, pH 7.4
  Intercept (95%CI) of linear regression of ivermectin relative peak area (%), combination: 97.6 (95.7-99.4)
  Relative difference (95% CI) in in vitro metabolism rate of ivermectin, alone vs co-incubated with the antimalarial: 7.72% (1.46–13.98)
  Slope (95%CI) of linear regression of ivermectin relative peak area (%) over time, combination: -0.40 (-0.42 to -0.38)
